Test results reported in patent US11584736B2, “Heterocyclic P2Y14 receptor antagonists” (The United States of America, as represented by the …, priority 2018, dated 2023).

Biological target: T1, hP2Y14R (Homo sapiens, UniProt Q15391)
T1 construct: expressed in transfected cells
T1 sequence (Q15391 1-338): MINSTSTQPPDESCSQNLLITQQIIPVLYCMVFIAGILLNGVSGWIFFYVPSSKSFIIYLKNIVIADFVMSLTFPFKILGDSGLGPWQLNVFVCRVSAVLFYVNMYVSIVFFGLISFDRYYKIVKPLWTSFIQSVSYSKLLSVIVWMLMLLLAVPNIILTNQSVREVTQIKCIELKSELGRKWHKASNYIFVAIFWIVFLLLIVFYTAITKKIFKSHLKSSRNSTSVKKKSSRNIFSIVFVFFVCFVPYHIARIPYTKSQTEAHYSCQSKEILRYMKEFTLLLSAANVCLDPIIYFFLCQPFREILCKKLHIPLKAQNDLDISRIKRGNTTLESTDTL
Assay: Competitive fluorescent binding assay, flow cytometry of whole hP2Y14R-CHO cells
Conditions: Table 1, fluorescent antagonist tracer 20 nM, mean ± SEM (n = 3-5)
Method: Cell Culture: Chinese hamster ovary cells stably expressing the hP2Y14—R (CHO-hP2Y14R) were grown in Dulbecco's Modified Eagle's Medium (DMEM)/Ham's F12 (F12) 1:1 supplemented with 10% FBS, 100 units/mL penicillin, […] streptomycin, 2 mM L-glutamine and 0.500 mg/mL G418 Sulfate (Geneticin). Cells were maintained in a humidified atmosphere and sterile incubation conditions held at 37° C. and 5% CO2 (g).
Competitive Assay: Competitive fluorescent assays were performed on a BD FACSCalibur flow cytometer in conjunction with the softwares BD Bioscience PlateManager and CellQuest. All cell culture growth and assays for this procedure were conducted on flat-bottom 96-well plates. CHO-hP2Y14R cells were grown to approximately 80-90% confluency prior to assays. The 96-well plate format enabled four compounds to be analyzed in triplicate per run. All unlabeled ligand compounds are stored as 5 mM stock solutions in dimethyl sulfoxide (DMSO). Serial dilutions of each compound were prepared in complete medium. Cells were initially incubated with unlabeled compounds for 30 min at 37° C. and 5% CO2 (g). […] After three consecutive washes in sterile 1× Dulbecco's Phosphate Buffered Saline (DPBS) minus Ca^2+/Mg^2+, cells were detached from the plate using Corning Cellstripper™ to reduce damaging the hP2Y14R protein. Final cell suspensions for flow cytometry was in DPBS minus Ca^2+/Mg^2+.
IC50 values were determined from the gathered data with the program GraphPad Prism version 7.0.

In order of rising IC50:
1. CC(=O)NCCOCCOCCOCCOCCOCCOCCC(=O)N1CCC(c2ccc(-c3cc(C(=O)O)cc4cc(-c5ccc(C(F)(F)F)cc5)ccc34)cc2)CC1 [Compound 13, 4-(4-(1-(2-Oxo-6,9,12,15,18,21-hexaoxa-3-azatetracosan-24-oyl)piperidin-4-yl)phenyl)-7-(4-(trifluoromethyl)phenyl)-2-naphthoic acid]  979 ± 331 nM
2. COCCOCCOCCOCCOCCOCCC(=O)N1CCC(c2ccc(-c3cc(C(=O)O)cc4cc(-c5ccc(C(F)(F)F)cc5)ccc34)cc2)CC1 [Compound 11, 4-(4-(1-(2,5,8,11,14,17-Hexaoxaicosan-20-oyl)piperidin-4-yl)phenyl)-7-(4-(trifluoromethyl)phenyl)-2-naphthoic acid]  1410 ± 560 nM
3. CC(C)(C)OC(=O)NCCOCCOCCOCCOCCOCCOCCC(=O)N1CCC(c2ccc(-c3cc(C(=O)O)cc4cc(-c5ccc(C(F)(F)F)cc5)ccc34)cc2)CC1 [Compound 14, 4-(4-(1-(2,2-Dimethyl-4-oxo-3,8,11,14,17,20,23-heptaoxa-5-azahexacosan-26-oyl)piperidin-4-yl)phenyl)-7-(4-(trifluoromethyl)phenyl)-2-naphthoicacid]  2830 ± 1150 nM

Same assay, conditions: Table 2, fluorescent antagonist tracer 20 nM, mean ± SEM (n = 3-5)

In order of falling IC50:
1. NC(=O)c1ccc(-c2cc(C(=O)O)cc(-c3nc4cc(C(F)(F)F)ccc4[nH]3)c2)cc1 [Compound 32, 4′-Carbamoyl-5-(5-(trifluoromethyl)-1H-benzo[d]imidazol-2-yl)-[1,1′-biphenyl]-3-carboxylic acid]  24400 ± 3300 nM
2. Cc1c(C(=O)O)cc(-c2cn(-c3ccc(C(F)(F)F)cc3)nn2)cc1-c1ccc(C2CCNCC2)cc1 [Compound 34, 2-Methyl-4′-(piperidin-4-yl)-5-(1-(4-(trifluoromethyl)phenyl)-1H-1,2,3-triazol-4-yl)-[1,1′-biphenyl]-3-carboxylic acid]  11100 ± 1600 nM
3. NC(=O)c1ccc(-c2cc(C(=O)O)cc(-c3cc4cc(C(F)(F)F)ccc4[nH]3)c2)cc1 [Compound 30, 4′-Carbamoyl-5-(5-(trifluoromethyl)-1H-indol-2-yl)-[1,1′-biphenyl]-3-carboxylic acid]  2440 ± 430 nM
